Assay results: US12139534B2, “Methods and compositions for decreasing soluble immune receptor CD28” (BIOND BIOLOGICS LTD., priority 2018, dated 2024)

Test system: human PBMCs
Assay: CMV stimulation of PBMCs with ectopic recombinant human CD28, CTLA-4, CD80; cytokine ELISA/multiplex
Format: cell-based
Conditions: CMV 0.5 μg/mL

soluble CTLA-4: recombinant human CTLA-4 (R&D systems), mimicking Abatacept
cytokine secretion profiles, comparison with sCD28: over-all similar impact on the immune system
